Assay results published in US6022696A, “Methods of identifying agonists or antagonists of angiotensin IV” (Washington State University Research Foundation, priority 1998, dated 2000).

Amino acid sequences for entries named in this document (tags omitted). Residues count along the entry.
UniProt F1N1Q8, 1-1022: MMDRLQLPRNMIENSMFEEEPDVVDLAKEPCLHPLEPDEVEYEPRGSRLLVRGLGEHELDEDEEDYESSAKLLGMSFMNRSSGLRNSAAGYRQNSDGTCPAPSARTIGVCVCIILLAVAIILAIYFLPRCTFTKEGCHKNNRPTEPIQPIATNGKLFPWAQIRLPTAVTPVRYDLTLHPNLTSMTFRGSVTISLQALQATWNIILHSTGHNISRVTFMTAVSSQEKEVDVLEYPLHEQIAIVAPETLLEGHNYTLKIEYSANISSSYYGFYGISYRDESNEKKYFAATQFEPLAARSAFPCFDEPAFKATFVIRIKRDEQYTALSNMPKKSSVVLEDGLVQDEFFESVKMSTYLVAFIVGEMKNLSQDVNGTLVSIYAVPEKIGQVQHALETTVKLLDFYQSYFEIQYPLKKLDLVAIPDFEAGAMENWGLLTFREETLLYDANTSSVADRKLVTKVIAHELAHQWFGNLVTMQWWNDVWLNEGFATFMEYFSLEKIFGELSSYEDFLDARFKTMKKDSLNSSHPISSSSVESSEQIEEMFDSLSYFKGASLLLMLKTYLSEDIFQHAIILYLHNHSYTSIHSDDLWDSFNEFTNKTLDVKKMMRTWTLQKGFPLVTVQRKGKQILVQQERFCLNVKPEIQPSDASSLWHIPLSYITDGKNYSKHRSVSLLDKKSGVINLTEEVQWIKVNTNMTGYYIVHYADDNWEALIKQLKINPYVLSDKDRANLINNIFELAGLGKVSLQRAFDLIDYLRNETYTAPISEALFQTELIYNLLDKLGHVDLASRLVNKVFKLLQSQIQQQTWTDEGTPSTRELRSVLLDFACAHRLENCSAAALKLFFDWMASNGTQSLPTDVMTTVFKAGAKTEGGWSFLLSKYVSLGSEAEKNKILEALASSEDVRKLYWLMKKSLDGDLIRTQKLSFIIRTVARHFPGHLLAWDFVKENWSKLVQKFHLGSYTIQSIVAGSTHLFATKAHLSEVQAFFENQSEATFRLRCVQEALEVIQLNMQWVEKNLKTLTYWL

Molecular target: AT4 receptor (Bos taurus, UniProt F1N1Q8)
Assay: 125I-AIV binding and competition, solubilized bovine adrenal cortical receptor
Settings: read-out: Ki, competition of 125I-AIV binding

| SMILES | Ki [nM] |
| --- | --- |
| CC[C@H](C)[C@H](NC(=O)[C@H](Cc1ccc(O)cc1)NC(=O)[C@@H](N)C(C)C)C(=O)N[C@@H](Cc1c[nH]cn1)C(=O)N1CCC[C@H]1C(=O)NCC(=O)O | 7.16 |
| CC[C@H](C)[C@H](NC(=O)CNC(=O)[C@@H](N)C(C)C)C(=O)N[C@@H](Cc1c[nH]cn1)C(=O)N1CCC[C@H]1C(=O)N[C@@H](Cc1ccccc1)C(=O)O | 1000 |
| CC(C)[C@H](N)C(=O)N[C@@H](Cc1ccc(O)cc1)C(=O)NCC(=O)N[C@@H](Cc1c[nH]cn1)C(=O)N1CCC[C@H]1C(=O)N[C@@H](Cc1ccccc1)C(=O)O | 116 |
| CC[C@H](C)[C@H](NC(=O)[C@H](Cc1ccc(O)cc1)NC(=O)CN)C(=O)N[C@@H](Cc1c[nH]cn1)C(=O)N1CCC[C@H]1C(=O)N[C@@H](Cc1ccccc1)C(=O)O | 168 |
| CC[C@H](C)[C@H](NC(=O)[C@H](Cc1ccc(O)cc1)NC(=O)[C@@H](N)C(C)C)C(=O)NCC(=O)N1CCC[C@H]1C(=O)N[C@@H](Cc1ccccc1)C(=O)O | 0.698 |
| CC[C@H](C)[C@H](NC(=O)[C@H](Cc1ccc(O)cc1)NC(=O)[C@@H](N)C(C)C)C(=O)N[C@@H](Cc1c[nH]cn1)C(=O)NCC(=O)N[C@@H](Cc1ccccc1)C(=O)O | 0.21 |
